Reference: patent US6139840A, “Methods of eliciting an antibody response using flea protease proteins and homologs thereof” (priority 1997, dated 2000)

System: soluble fed and unfed flea midgut preparations
Assay type: biochemical
Conditions: substrate BAPNA
Excerpt: Pellets from the centrifugation step were also collected and resuspended for analysis. Also prepared were whole flea lysates.

## [Ca+2] [calcium ions]
  stimulation of proteolytic activity: about 25%
